Where a name gives a salt, the structure may show the parent alone.

The chains behind the UniProt entries cited, without tags or fusion partners.
UniProt A0AAD7YHG5, entry or part of it: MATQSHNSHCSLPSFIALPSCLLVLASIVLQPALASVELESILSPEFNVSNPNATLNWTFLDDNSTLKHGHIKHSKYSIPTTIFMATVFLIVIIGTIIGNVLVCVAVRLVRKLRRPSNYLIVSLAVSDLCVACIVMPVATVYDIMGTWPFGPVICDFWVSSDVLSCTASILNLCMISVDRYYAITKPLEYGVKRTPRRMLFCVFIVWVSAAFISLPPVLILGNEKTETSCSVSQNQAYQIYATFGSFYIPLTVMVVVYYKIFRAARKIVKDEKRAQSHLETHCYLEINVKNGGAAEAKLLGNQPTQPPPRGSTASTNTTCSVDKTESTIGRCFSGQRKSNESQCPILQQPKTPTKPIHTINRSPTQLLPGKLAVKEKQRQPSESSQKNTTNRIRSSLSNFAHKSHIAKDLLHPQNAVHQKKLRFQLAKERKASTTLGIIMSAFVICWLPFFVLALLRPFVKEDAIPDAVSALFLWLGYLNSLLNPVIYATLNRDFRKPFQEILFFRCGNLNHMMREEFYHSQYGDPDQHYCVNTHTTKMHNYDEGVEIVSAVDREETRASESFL
UniProt A0AAD7YHG5, entry or part of it DEL320-414: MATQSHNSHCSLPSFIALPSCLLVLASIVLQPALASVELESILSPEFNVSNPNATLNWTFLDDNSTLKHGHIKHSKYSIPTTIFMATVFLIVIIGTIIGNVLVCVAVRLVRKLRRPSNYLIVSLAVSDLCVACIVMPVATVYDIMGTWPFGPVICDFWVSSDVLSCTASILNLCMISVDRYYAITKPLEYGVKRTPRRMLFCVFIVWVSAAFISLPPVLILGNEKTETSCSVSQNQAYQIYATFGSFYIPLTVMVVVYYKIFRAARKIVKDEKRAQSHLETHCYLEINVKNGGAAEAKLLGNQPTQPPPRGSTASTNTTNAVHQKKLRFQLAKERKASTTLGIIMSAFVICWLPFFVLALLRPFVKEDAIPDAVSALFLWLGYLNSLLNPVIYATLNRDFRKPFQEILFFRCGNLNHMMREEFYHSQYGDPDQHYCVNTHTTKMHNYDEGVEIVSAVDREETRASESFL

One test has as its target Msep5-HT7L receptor (Mythimna separata, UniProt A0AAD7YHG5). As to the kind of experiment: cAMP assay, agonist activation of Msep5-HT7L in stably transfected HEK293 cells. It is filed as cell-based. As to the method: (§1) HEK-293 cells were cultured in D-MEM (Gibco BRL, Gaithersburg, MD, USA) supplemented with 10% FBS (Gibco BRL, Gaithersburg, MD, USA) at 37 °C and 5% CO2. Four microgram recombinant plasmids with 10 μL of lipofectamine 2000 (Invitrogen, Carlsbad, CA, USA) were introduced into exponentially growing HEK 293 cells. The 0.8 mg/mL antibiotic G418 (Sigma, St. Louis, MO, USA) was added to the medium to select for cells that were stably expressed the Msep5-HT7 receptors. After fourteen days of G418 selection, three G418-resistant colonies were trypsinized in cloning cylinders and transferred to 12-well plastic plates for expansion.
(§2) Intracellular cAMP concentrations were measured as previously described. Briefly, when cells were cultured for 2 days to the concentration of 1 × 10^6 cells/mL, culture media were removed and the cells were washed two times with cold PBS (pH 7.4), then the cells were preincubated in 450 μL of Dulbecco’s phosphate-buffered solution (DPBS) containing 100 μM phosphodiesterase inhibitor 3-isobutyl-1-methylxanthine (IBMX) for 20 min at room temperature. After the preincubation, 50 μL of DPBS, containing various concentrations of reagents, was added into the stable transfected cells for incubation for 30 min at 37 °C. The cells were washed three times with cold PBS (pH 7.4) and then lysed in 250 μL of cold cell lysis buffer by re-freezing. The cell debris was removed by centrifugation at 600× g for 10 min at 4 °C. The amount of intracellular cAMP extracted from harvested supernatant was determined using an ELISA reagent (R&D Systems, Minneapolis, MN, USA). Each measurement was performed in duplicate, and three independent assays were carried out for each reagent and concentration tested.

For another test, the target named is Msep5-HT7S receptor (Mythimna separata, UniProt A0AAD7YHG5, DEL320-414). As to the kind of experiment: cell-based. As to the method:
as §1, §2

Turning to `NCCc1c[nH]c2ccc(O)cc12` [5-HT, serotonin hydrochloride], the EC50 on Msep5-HT7L receptor (EC50, 5-HT7L, cAMP production, HEK-293 cells) is 92 nM; at Msep5-HT7L receptor (Half-maximal stimulation (EC50) of cAMP production, Msep5-HT7L-expressing cells), 92.4 nM; at Msep5-HT7L receptor (logEC50 (Mean ± SEM), 5-HT7L, cAMP production, HEK-293 cells, given as negative log value), 93.3 nM; on Msep5-HT7S receptor (EC50, 5-HT7S, cAMP production, HEK-293 cells) it was 35 nM; on Msep5-HT7S receptor (Half-maximal stimulation (EC50) of cAMP production, Msep5-HT7S-expressing cells) it was 35.1 nM; on Msep5-HT7S receptor (logEC50 (Mean ± SEM), 5-HT7S, cAMP production, HEK-293 cells, given as negative log value), 34.7 nM.

As a reminder, the EC50 is the midpoint of the concentration-response curve.
